ERp5 block: blocks human ERp5 reductase activity on insulin; Q15084; ERp5 insulin aggregation, absorbance 650 nm, 90 min; inhibition, % at 9.99 µM; hit rate 0.05% among 350,000;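 active = mean replicate inhibition above about 25%, with every replicate also reaching it, limit read from the data, passing the limit was not always enough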
PDI inh: PDI (human) enzyme inhibition. P07237. PDI insulin aggregation turbidity, A650, 90 min. inhibition, % at 10 µM. hit rate 0.052% among 350,000. AID 588391;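 active = mean inhibition across replicates of 30% or more, whatever share of single replicates reach that level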
UUG fidelity: alters start codon recognition fidelity in yeast; AID 602363; activity score, % at 18.7 µM; 350,000 tested, 0.13% active; S. cerevisiae UUG-firefly luciferase reporter, luminescence/redox ratio;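 active means replicate mean at a twofold rise or more, about +100% in these data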;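 further: firefly luciferase made from a UUG start codon reports start codon fidelity; reporter light over untreated wells divided by growth signal over untreated wells; some hits fall short of that in this replicate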
FGF22 binding: binders of recombinant human FGF22 by thermal shift | Q9HCT0 | SYPRO orange fluorescence; percent of sucrose octasulfate shift, DMSO zero | activity (Tm shift, normalised), % at 9.99 µM | hit rate 1.5% among 340,000 | AID 651658;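 active = mean Tm shift, scaled 0 neutral to 100 positive control, at about 1.3% or above, every replicate too, limit read from the data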
S100A4 MyoIIA: blocks human S100A4 binding to myosin IIA peptide; P26447; S100A4/TAMRA-MyoIIA peptide fluorescence polarization; inhibition, % at 10.7 µM; hit rate 0.14% among 360,000; AID 652163;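 active = mean inhibition of at least 70% across replicates, with every replicate also reaching that level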
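assay system = human S100A4 monomer with TAMRA-labelled myosin IIA peptide | also added = labelled myosin peptide probe, 5 nM | incubation = 5 min between mix addition and reading | control set = DMSO and TFP controls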
SIRT5 block: blocks human SIRT5 desuccinylation of peptide | Purified SirT5, succinyl-peptide AMC, trypsin-coupled fluorescence | hit rate 1.1% among 330,000 | Q9NXA8 | inhibition, % at 15 µM; in the data active = inhibition above about 15%
Active calls of the source: *; ! = not active in a repeat. This is a sample that favours compounds with a hit; in the whole collection about 2.2% have one here.

O=C1CN(Cc2ccc(F)cc2)C[C@@H]2[C@@H](c3ccc(-c4ccccc4F)cc3)[C@H](CO)N12 was read as ERp5 block 1, S100A4 MyoIIA 112* and SIRT5 block 1.
O=C(Nc1cccc(F)c1)N1CC(=O)N2[C@H](C1)[C@@H](c1ccc(-c3cccc(F)c3)cc1)[C@@H]2CO was read as ERp5 block 5, S100A4 MyoIIA -2 and SIRT5 block 16*.
`O=C(Nc1ccccc1F)N1CC(=O)N2[C@H](CO)[C@@H](c3ccc(-c4ccccc4)cc3)[C@H]2C1` gave ERp5 block -3, S100A4 MyoIIA 124* and SIRT5 block 1.
For O=C(Nc1cccc(F)c1)N1CC(=O)N2[C@@H](CO)[C@@H](c3ccc(-c4cccc(F)c4)cc3)[C@@H]2C1 the results were ERp5 block 2, S100A4 MyoIIA 6 and SIRT5 block 5.
Screening O=C1CN(Cc2ccc(F)cc2)C[C@H]2[C@@H](c3ccc(-c4ccccc4F)cc3)[C@@H](CO)N12 returned ERp5 block 5, S100A4 MyoIIA 29 and SIRT5 block 1.
For O=C(Nc1ccc(C(F)(F)F)cc1)N1C[C@@H]2N[C@H](C1)C2c1ccc(-c2cccc(F)c2)cc1 (stereo partly specified) the results were ERp5 block -1, S100A4 MyoIIA -3 and SIRT5 block 15*!.
Screening Cc1noc(C)c1S(=O)(=O)N(C)C[C@H]1Oc2ccc(NC(=O)Cc3ccccc3)cc2CC(=O)N([C@@H](C)CO)C[C@@H]1C returned UUG fidelity 3 and FGF22 binding 0.
COc1ccc2[nH]c3c(=O)n(Cc4ccc(C(=O)N5CCC(C(N)=O)CC5)cc4)c(=S)[nH]c3c2c1 was read as ERp5 block -5, PDI inh 8, FGF22 binding 43*, S100A4 MyoIIA -4 and SIRT5 block -2.
O=C(C1CCCC1)N1CC2(C1)[C@H](c1ccccc1)[C@@H](CO)N2Cc1ccccc1F was read as ERp5 block -1, S100A4 MyoIIA -4 and SIRT5 block -4.
CC(C)(C)C(O)CN1CCCC1 (stereo unspecified) was read as ERp5 block 1, PDI inh 16, UUG fidelity -18, FGF22 binding 44*, S100A4 MyoIIA 2 and SIRT5 block 1.
Cc1ccc(C(=O)NCC(=O)OCC(=O)NCC(F)(F)F)cc1 was read as ERp5 block 5, PDI inh -4, FGF22 binding 44*, S100A4 MyoIIA 3 and SIRT5 block -1.
NCC1C2CCC(O2)C1CO (stereo unspecified) was read as ERp5 block 10, PDI inh 1, FGF22 binding 45* and S100A4 MyoIIA -1.
For N#Cc1cccc(-c2ccc(C3[C@H]4CNC[C@@H]3N4Cc3ccc4c(c3)OCO4)cc2)c1 (stereo partly specified) the results were ERp5 block -3, S100A4 MyoIIA 11 and SIRT5 block 1.
For C[C@@H]1CN([C@@H](C)CO)C(=O)c2cc(NS(=O)(=O)c3cn(C)cn3)ccc2O[C@@H](C)CCCCO[C@H]1CN(C)C(=O)Cc1ccccc1 the results were ERp5 block 0, UUG fidelity 6, FGF22 binding 0, S100A4 MyoIIA 1 and SIRT5 block 17*.
C[C@@H]1CCCCO[C@H](CN(C)C(=O)c2ccncc2)[C@H](C)CN([C@H](C)CO)C(=O)c2cc(NS(=O)(=O)c3cn(C)cn3)ccc2O1 was read as ERp5 block -1, UUG fidelity 5, FGF22 binding 1.7*, S100A4 MyoIIA -4 and SIRT5 block -2.
`O=C(c1cccnc1)N1CC[C@@H]2[C@H]1c1cc(-c3cccc(F)c3)ccc1N[C@@H]2CO` gave ERp5 block -6, UUG fidelity -8, FGF22 binding 0, S100A4 MyoIIA 28 and SIRT5 block 11.
Screening Nc1nc(CSc2ccc(Cl)cc2)nc(N2CCCCC2)n1 returned ERp5 block 6, PDI inh 3, FGF22 binding 0, S100A4 MyoIIA -6 and SIRT5 block 18*.
For Nc1nc(CSc2ccccc2)nc(N2CCCCC2)n1 the results were ERp5 block -4, PDI inh 3, FGF22 binding 0, S100A4 MyoIIA 2 and SIRT5 block 2.

Fetched by structure from above (two):
O=C(C1CCCC1)N1CC2(C1)[C@H](c1ccccc1)[C@@H](CO)N2Cc1ccccc1F was read as ERp5 block -1, S100A4 MyoIIA -4 and SIRT5 block -4.
For O=C(Nc1cccc(F)c1)N1CC(=O)N2[C@@H](CO)[C@@H](c3ccc(-c4cccc(F)c4)cc3)[C@@H]2C1 the results were ERp5 block 2, S100A4 MyoIIA 6 and SIRT5 block 5.
